Assay results reported in patent US7642258B2, “Combination of brimonidine and timolol for topical ophthalmic use” (Allergan, Inc., priority 2002, dated 2010).

What was measured:
[1] = tested on: patients with glaucoma or ocular hypertension; assay: Clinical study: safety (adverse events, heart rate, blood pressure, visual acuity)
[2] = Clinical study: quantitation of plasma brimonidine and timolol concentrations; conditions: for concentration at 1 h: human, in vivo, mean±SD plasma brimonidine concentration, 1 hour postdose

Brc1c(N=C2NCCN2)ccc2nccnc12.O=C(O)C(O)C(O)C(=O)O [Brimonidine, 5-Bromo-6-(2-imidazolidinylideneamino)quinoxaline L-tartrate]
Serious adverse events reported ([1]; % of patients): 2.0%
discontinuation of patients due to adverse events ([1]; % of patients): 14.3%
allergic conjunctivitis, % of patients ([1]; adverse event through month 3): (3.6%)
allergic conjunctivitis, number of patients ([1]; adverse event through month 3): 7
asthenia, % of patients ([1]; adverse event through month 3): (3.1%)
asthenia, number of patients ([1]; adverse event through month 3): 6
burning sensation in eye, % of patients ([1]; adverse event through month 3): (5.6%)
burning sensation in eye, number of patients ([1]; adverse event through month 3): 11
conjunctival folliculosis, % of patients ([1]; adverse event through month 3): (4.6%)
conjunctival folliculosis, number of patients ([1]; adverse event through month 3): 9
conjunctival hyperemia, % of patients ([1]; adverse event through month 3): (11.7%)
conjunctival hyperemia, number of patients ([1]; adverse event through month 3): 23
epiphora, % of patients ([1]; adverse event through month 3): (4.1%)
epiphora, number of patients ([1]; adverse event through month 3): 8
eye pruritus, % of patients ([1]; adverse event through month 3): (6.6%)
eye pruritus, number of patients ([1]; adverse event through month 3): 13
foreign body sensation, % of patients ([1]; adverse event through month 3): (5.1%)
foreign body sensation, number of patients ([1]; adverse event through month 3): 10
infection (body as a whole), % of patients ([1]; adverse event through month 3): (3.1%)
infection (body as a whole), number of patients ([1]; adverse event through month 3): 6
oral dryness, % of patients ([1]; adverse event through month 3): (9.7%)
oral dryness, number of patients ([1]; adverse event through month 3): 19
somnolence, % of patients ([1]; adverse event through month 3): (3.6%)
somnolence, number of patients ([1]; adverse event through month 3): 7
stinging sensation eye, % of patients ([1]; adverse event through month 3): (2.0%)
stinging sensation eye, number of patients ([1]; adverse event through month 3): 4
visual disturbance, % of patients ([1]; adverse event through month 3): (5.6%)
visual disturbance, number of patients ([1]; adverse event through month 3): 11
death ([1]; number in group, not related to study drug): 1
patients who experienced one or more adverse events, regardless of causality ([1]; through month 3): 61.7%
concentration at 1 h ([2]; month 3): 0.0786 ± 0.0489 ng/mL
concentration at 1 h ([2]; week 2): 0.081 ± 0.0638 ng/mL
plasma brimonidine concentration in males lower than in females ([2]; month 3): 37%
plasma brimonidine concentration in males lower than in females ([2]; week 2): 37%
